Results published in publication PMC5495814, “The impact of the butterfly effect on human parainfluenza virus haemagglutinin-neuraminidase inhibitor design” (Scientific Reports, 2017).
Several values for one entry are separate records, joined by “and”; a condition that tells them apart may be missing. Equal values may be shown once.

Sequences of proteins named here, by UniProt entry; tags and fusion partners are left off. A change or cut given only in a name is not applied to a line headed by its entry.
UniProt P08492: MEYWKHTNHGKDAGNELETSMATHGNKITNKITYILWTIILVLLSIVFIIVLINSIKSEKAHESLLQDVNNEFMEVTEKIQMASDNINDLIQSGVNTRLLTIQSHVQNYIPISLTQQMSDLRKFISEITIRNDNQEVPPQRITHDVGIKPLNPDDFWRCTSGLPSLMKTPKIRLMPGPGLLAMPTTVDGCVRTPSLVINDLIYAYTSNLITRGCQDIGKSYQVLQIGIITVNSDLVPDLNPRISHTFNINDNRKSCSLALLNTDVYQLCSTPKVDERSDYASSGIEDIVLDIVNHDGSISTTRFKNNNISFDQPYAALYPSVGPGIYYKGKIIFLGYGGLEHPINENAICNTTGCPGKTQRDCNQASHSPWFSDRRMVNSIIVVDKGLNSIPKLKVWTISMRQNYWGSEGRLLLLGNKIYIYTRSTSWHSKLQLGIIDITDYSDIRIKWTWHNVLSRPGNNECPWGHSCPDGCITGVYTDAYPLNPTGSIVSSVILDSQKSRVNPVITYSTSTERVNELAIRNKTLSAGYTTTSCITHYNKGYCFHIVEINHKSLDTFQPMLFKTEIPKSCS

Legend:
[1] = target: hPIV-3 HN neuraminidase function (Human parainfluenza 3 virus, UniProt P08492); assay: biochemical; parameters: species or system human parainfluenza virus type 3 (hPIV-3, strain C-243); conditions: NI IC50, purified hPIV-3, MUN substrate, pH 4.6; means of 3 independent experiments
[2] = target: hPIV-3 HN haemagglutinin function (Human parainfluenza 3 virus, UniProt P08492); assay: cell-based; parameters: species or system human parainfluenza virus type 3 (hPIV-3); conditions: HI IC50, human red blood cells, 4 °C, 90 min
Description: The HN inhibitors were assessed in haemagglutination inhibition assays using human red blood cells (RBC) as previously described[10] with minor modifications. The lowest final concentration of hPIV-3 that leads to a complete agglutination of human-RBC at 4 °C is considered as 1 HAU. 4 haemagglutination units (HAU) of hPIV-3 (final 1 HAU per well) were pre-mixed with inhibitors of each tested concentration (4X dilution in PBS) on ice. Next, an equivalent volume of ice-cold 1% human-RBC in PBS was added to each well of the inhibitor/virus pre-mixture and the plate was then incubated for 90 min at 4 °C before determining the extent of haemagglutination inhibition.

SMILES: CC(C)C(=O)N[C@H]1[C@H]([C@H](O)[C@H](O)CO)OC(C(=O)O)=C[C@@H]1n1cc(-c2ccccc2)nn1 [Inhibitor 5]
- IC50 [1]: 1.4 µM and 1.43 µM
- IC50 [2]: 0.63 µM and 0.6 µM
